Measured values: patent US20040219600A1, “Method for determining sensitivity to environmental toxins and susceptibility to parkinson's disease” (priority 2002, published 2004)

What was measured:
GSTpi = assay: Northern analysis of GSTpi mRNA in brain after MPTP; format: in vivo, mouse; conditions: 40 minutes after administration of MPTP
Text: (§1) Studies have shown that different members of the glutathione S-transferase family (pi, alpha and mu) are differentially expressed throughout the body (Johnson J A, el Barbary A, Kornguth S E, Brugge J F, Siegel F L, Glutathione S-transferase Isoenzymes in Rat Brain Neurons and Glia, J. Neurosci. 13:2013-23 (1993)) although at this time no information has been published on the expression of these genes in the substantia nigra.

GSTmu = assay: Northern analysis of GSTmu mRNA in brain after MPTP; format: in vivo, mouse; conditions: after administration of MPTP
Text: as §1

SMILES: CN1CC=C(c2ccccc2)CC1 [MPTP, 1-methyl-4-phenyl-1,2,3,6-tetrahydropyridine]
- mRNA levels of GSTpi (GSTpi; C57B1/6 animals): may be decreasing
- mRNA levels of GSTpi (GSTpi; SW animals): not in SW animals
- levels of GSTmu (GSTmu): do not appear to be changed
